Laboratory results taken from patent US20250388665A1.

Tests used:
[1] = molecular target: murine TNFα (murine) (UniProt P06804); assay: ELISA: Fab captured via anti-human Fd, biotinylated murine TNFα titrated (x axis), prolonged dissociation at pH 6.0, A450
[2] = molecular target: murine TNFα (murine) (UniProt P06804); assay: ELISA: Fab captured via anti-human Fd, biotinylated murine TNFα titrated (x axis), prolonged dissociation at pH 7.4, A450

## 4.2a-6 Fab (Fab; other documents disagree on this pair)
[1]
  EC50 (read off the curve): 2 nM
[2]
  EC50 (read off the curve): 1 nM
